This is an account of results in doi:10.1101/2023.12.06.570349v1 (biorxiv, 2023).

By UniProt entry, the sequences of proteins in these tests, tags left out. Residues count along the entry.
UniProt Q9Y5N1, 1-365 isoform Q9Y5N1-3: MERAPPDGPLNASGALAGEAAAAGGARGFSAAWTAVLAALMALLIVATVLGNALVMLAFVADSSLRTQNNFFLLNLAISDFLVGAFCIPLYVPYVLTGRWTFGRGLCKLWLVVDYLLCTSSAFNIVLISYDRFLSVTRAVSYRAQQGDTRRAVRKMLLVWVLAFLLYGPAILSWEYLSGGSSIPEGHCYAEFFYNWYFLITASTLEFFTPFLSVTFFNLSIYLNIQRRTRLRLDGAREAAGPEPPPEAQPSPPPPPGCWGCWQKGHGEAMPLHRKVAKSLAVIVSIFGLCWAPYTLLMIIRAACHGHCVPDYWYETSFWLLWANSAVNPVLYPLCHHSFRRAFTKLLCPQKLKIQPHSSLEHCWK
UniProt Q9Y5N1, 1-415 isoform Q9Y5N1-7: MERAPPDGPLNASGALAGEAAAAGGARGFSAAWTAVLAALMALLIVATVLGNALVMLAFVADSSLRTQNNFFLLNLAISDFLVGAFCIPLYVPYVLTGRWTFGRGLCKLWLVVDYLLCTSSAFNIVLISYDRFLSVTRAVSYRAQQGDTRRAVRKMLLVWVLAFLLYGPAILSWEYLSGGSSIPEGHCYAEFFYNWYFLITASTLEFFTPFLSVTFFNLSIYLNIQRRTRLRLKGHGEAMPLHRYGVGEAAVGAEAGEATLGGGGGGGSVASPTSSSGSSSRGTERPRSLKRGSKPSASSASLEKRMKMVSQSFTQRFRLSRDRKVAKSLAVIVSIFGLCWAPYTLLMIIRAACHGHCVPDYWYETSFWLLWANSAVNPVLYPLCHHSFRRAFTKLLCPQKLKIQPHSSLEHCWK

Assay [1] concerns the target H3R-365 (Homo sapiens, UniProt Q9Y5N1). Put plainly: biochemical.
The target in assay [2] is H3R-413 (Homo sapiens, UniProt Q9Y5N1, DEL274-305). Put plainly: biochemical.
Assay [3] addresses H3R-415 (Homo sapiens, UniProt Q9Y5N1). Put plainly: cell-based. Also on record: species or system HEK293-EPAC stably expressing H3R isoform.
The target in assay [4] is H3R-373 (Homo sapiens, UniProt Q9Y5N1, INS445KMKKKTCL).

The Ki is a measure of affinity in units of concentration, obtained from inhibition or displacement. Lower therefore signals higher affinity. Broadly, the EC50 is the concentration that produces a half-maximal response. Higher therefore signals a need for much substance. For the compound `NC(=NCc1ccc(Cl)cc1)SCCCc1cnc[nH]1` [clobenpropit, N’-[(4-chlorophenyl)methyl]-1-[3-(3H-imidazol-4-yl)propylsulfanyl]methanimidamide], the Ki in assay [1] was 1260 pM; in assay [2] it was 631 pM; in assay [4] it was 1000 pM. Further, the midpoint of the response in assay [3], the EC50, lay at 200 pM.
